# The entries are a selection whose mix differs from that of the whole data set. Calls of active or inactive are those of the source.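 The calls were made as follows: active = mean activation above about 17%, with every replicate also reaching it (limit read from the data, passing the limit was not always enough); inconclusive = only one of the two conditions met; inactive = the rest.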
# Protein sequences, listed by entry. Tags and fused reporters are not part of them.
# UniProt P13346, whole entry: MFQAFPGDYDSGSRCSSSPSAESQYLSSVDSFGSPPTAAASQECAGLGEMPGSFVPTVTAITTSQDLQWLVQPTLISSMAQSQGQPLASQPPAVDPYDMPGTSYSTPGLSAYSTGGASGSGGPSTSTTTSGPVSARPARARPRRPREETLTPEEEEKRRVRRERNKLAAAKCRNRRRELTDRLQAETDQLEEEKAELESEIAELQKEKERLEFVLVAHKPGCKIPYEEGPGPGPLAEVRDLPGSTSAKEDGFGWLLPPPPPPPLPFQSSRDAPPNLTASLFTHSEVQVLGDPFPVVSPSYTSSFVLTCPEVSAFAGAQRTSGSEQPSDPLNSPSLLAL
# Target: Protein FosB (Mus musculus) (UniProt P13346)
# Assay: enhancers of mouse delta FosB DNA binding – biochemical, fluorescence polarization, TAMRA-CDK5 oligo, single point, primary screen (AID 493131);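 also: fluorescence polarization rise as delta FosB binds a TAMRA Cdk5 AP-1 oligo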
# Conditions: purified delta FosB, at 25 µM, active compounds read high, percent of positive-control signal above neutral wells
row,SMILES,activation
1,CCCOc1ccc(NP(C)(=O)Oc2ccc(Cl)cc2)cc1 (stereo not given),inactive: -6.47%
2,CP(=O)(Nc1ccc(SC(F)(F)F)cc1)Oc1ccccc1 (stereo not given),inactive: -5.03%
3,COc1ccccc1OP(C)(=O)Nc1c(C)cccc1C (stereo not given),inactive: -8.54%
4,CN1CCCCC1COC(=O)C1(O)c2ccccc2CCc2ccccc21 (stereo not given),inactive: -2.79%
5,CC1=C2N=C(C=C3N=C(C(C)=C4[N-][C@@](C)([C@@H]5N=C1[C@](C)(CCC(=O)NC[C@@H](C)OP(=O)([O-])O[C@H]1[C@@H](O)[C@@H](n6cnc7cc(C)c(C)cc76)O[C@@H]1CO)[C@H]5CC(N)=O)[C@@](C)(CC(N)=O)[C@@H]4CCC(N)=O)[C@@](C)(CC(N)=O)[C@@H]3CCC(N)=O)C(C)(C)[C@@H]2CCC(N)=O.[C-]#N.[Co+3],inactive: 1.05%
6,O=[N+]([O-])c1cc([N+](=O)[O-])c(Nc2nnnn2CCO)c([N+](=O)[O-])c1,inactive: 2.39%
7,CCOC(=O)C(CC)C1=NC(C)(C)Cc2ccccc21.O=[N+]([O-])c1cc([N+](=O)[O-])c(O)c([N+](=O)[O-])c1 (stereo not given),inactive: 1.37%
8,Cc1nc2ccc3ccccc3c2s1.O=[N+]([O-])c1cc([N+](=O)[O-])c(O)c([N+](=O)[O-])c1,inactive: -2.96%
9,O=[N+]([O-])c1cc([N+](=O)[O-])c(-c2cnn(-c3ccccc3)c2)c([N+](=O)[O-])c1,inactive: -8.62%
10,O=[N+]([O-])c1cc([N+](=O)[O-])c(-n2nnc3ccccc32)c([N+](=O)[O-])c1,inactive: -3.64%
11,Cc1ccc(C)c(NP(C)(=O)Oc2ccccc2)c1 (stereo not given),inactive: -3.65%
12,Cc1cc(C)cc(OP(C)(=O)Nc2ccccn2)c1 (stereo not given),inactive: 5.81%
13,CP(=O)(Nc1cccc(Br)c1)Oc1ccccc1 (stereo not given),inactive: -3.72%
14,CCOC(=O)c1ccc(NP(C)(=O)Oc2cc(C)cc(C)c2)cc1 (stereo not given),inactive: -4.47%
15,Cc1cc(C)cc(OP(C)(=O)Nc2ccc(C)cc2C)c1 (stereo not given),inactive: -0.107%
16,COc1ccccc1OP(C)(=O)Nc1cccc(Br)c1 (stereo not given),inactive: -1.43%
17,CC1=NCCc2c1[nH]c1ccccc21.O=[N+]([O-])c1cc([N+](=O)[O-])c(O)c([N+](=O)[O-])c1,inactive: 5.3%
18,O=C(O)c1cccc(Nc2c([N+](=O)[O-])cc([N+](=O)[O-])cc2[N+](=O)[O-])c1,inactive: -0.652%
19,Cc1cc(C)cc(OP(C)(N)=O)c1 (stereo not given),inactive: 5.15%
20,COc1ccccc1OP(C)(=O)Nc1cc(Cl)ccc1C (stereo not given),inactive: 3.14%
